Source: patent publication US12542197B2

Chains of the proteins cited; added tags and fusions are not shown.
UniProt P00519, whole entry: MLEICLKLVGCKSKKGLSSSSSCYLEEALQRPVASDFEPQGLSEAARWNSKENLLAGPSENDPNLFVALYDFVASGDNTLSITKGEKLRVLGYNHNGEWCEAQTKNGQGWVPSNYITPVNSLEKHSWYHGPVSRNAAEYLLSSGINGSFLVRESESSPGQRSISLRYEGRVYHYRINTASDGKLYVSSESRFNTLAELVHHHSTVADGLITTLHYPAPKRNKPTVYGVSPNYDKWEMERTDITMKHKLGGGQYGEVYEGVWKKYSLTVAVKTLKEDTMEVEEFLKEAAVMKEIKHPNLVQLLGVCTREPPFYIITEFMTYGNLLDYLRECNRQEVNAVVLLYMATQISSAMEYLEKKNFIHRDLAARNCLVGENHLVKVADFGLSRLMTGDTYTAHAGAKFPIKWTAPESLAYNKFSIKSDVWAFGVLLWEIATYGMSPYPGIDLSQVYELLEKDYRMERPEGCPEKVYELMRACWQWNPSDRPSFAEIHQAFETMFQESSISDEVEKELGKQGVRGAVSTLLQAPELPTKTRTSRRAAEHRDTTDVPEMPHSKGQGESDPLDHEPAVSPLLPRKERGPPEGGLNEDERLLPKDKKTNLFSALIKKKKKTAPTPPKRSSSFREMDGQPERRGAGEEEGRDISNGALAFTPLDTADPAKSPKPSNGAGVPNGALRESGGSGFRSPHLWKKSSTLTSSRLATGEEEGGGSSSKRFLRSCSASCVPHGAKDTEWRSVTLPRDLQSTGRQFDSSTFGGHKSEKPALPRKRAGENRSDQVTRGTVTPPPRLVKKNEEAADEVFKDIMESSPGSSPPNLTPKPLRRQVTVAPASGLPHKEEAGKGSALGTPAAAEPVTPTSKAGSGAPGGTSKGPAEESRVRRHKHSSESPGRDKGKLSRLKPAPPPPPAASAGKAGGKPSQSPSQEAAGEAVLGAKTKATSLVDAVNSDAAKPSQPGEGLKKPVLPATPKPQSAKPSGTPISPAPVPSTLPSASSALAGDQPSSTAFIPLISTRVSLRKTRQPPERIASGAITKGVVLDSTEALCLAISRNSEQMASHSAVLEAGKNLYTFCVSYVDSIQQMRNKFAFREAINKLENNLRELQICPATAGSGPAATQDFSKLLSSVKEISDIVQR

Molecular target: protein ABL1 (Homo sapiens, UniProt P00519)
Test: Activity (binding force, IC50) against protein ABL1
Conditions: read-out: binding force, IC50 (50% inhibitory concentration); ligand for protein ABL1 (kinase), FIG. 12A

IC50: 1 µM
SMILES: COc1ccccc1Oc1ccc2[nH]nc(-c3nc4ccc(N5CCC(N6CCCCC6)CC5)cc4[nH]3)c2c1
